Assay results published in publication PMC10743564, “Acceleration of Protein Degradation by 20S Proteasome-Binding Peptides Generated by In Vitro Artificial Evolution” (International Journal of Molecular Sciences, 2023).

Amino acid sequences for entries named in this document (tags omitted). A change or cut given only in a name is not applied to a line headed by its entry.
UniProt P60900: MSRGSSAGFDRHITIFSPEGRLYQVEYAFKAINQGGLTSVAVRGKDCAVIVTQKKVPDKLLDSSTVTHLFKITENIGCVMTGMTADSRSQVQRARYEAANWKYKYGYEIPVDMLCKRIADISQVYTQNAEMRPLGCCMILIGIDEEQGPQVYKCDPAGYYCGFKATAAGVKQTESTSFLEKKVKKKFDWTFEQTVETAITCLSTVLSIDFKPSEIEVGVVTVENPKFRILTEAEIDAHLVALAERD

Target: human 20S core particle (CP) of the proteasome (human) (UniProt P60900)

Row | Substance | IC50 of inhibition of the CT-L activity (Suc-LLVY-AMC) of the 20S CP with 0.03% SDS [µM]
1 | 20S-BP1(7-8)YYA (peptide) | > 50
2 | Antennapedia peptide | > 50
3 | Rpt2-C (peptide) | > 50
4 | Rpt3-C (peptide) | > 50
5 | [Ala^8]20S-BP1(1-12) (peptide) | 1

Target: human 20S core particle (CP) of the proteasome (human) (UniProt P60900)
Remark: another data set of the same source

Row | Substance | half-life of the Trx fusion protein on digestion by purified 20S CP, SDS-PAGE (α-Syn fused to Trx without peptide: 4.0 h) [min]
6 | thioredoxin (Trx)-α-Syn fused to 20S-BP1(1-8)YYA | 54
7 | thioredoxin (Trx)-α-Syn fused to 20S-BP1(1-12) | 54

Target: human 20S core particle (CP) of the proteasome (human) (UniProt P60900)
Remark: another data set of the same source

Row | Substance | CT-L activity of intracellular proteasomes in U251 cells at 10 μM peptide [fold]
8 | AntP-20S-BP1(5-8)YYA (peptide) | 3.8
9 | AntP-20S-BP1(5-11) (peptide) | 4.6
